Amino acid sequences for entries named in this document (tags omitted). A change or cut given only in a name is not applied to a line headed by its entry. Residues count along the entry.
UniProt P07949, 29-1114 limits assumed: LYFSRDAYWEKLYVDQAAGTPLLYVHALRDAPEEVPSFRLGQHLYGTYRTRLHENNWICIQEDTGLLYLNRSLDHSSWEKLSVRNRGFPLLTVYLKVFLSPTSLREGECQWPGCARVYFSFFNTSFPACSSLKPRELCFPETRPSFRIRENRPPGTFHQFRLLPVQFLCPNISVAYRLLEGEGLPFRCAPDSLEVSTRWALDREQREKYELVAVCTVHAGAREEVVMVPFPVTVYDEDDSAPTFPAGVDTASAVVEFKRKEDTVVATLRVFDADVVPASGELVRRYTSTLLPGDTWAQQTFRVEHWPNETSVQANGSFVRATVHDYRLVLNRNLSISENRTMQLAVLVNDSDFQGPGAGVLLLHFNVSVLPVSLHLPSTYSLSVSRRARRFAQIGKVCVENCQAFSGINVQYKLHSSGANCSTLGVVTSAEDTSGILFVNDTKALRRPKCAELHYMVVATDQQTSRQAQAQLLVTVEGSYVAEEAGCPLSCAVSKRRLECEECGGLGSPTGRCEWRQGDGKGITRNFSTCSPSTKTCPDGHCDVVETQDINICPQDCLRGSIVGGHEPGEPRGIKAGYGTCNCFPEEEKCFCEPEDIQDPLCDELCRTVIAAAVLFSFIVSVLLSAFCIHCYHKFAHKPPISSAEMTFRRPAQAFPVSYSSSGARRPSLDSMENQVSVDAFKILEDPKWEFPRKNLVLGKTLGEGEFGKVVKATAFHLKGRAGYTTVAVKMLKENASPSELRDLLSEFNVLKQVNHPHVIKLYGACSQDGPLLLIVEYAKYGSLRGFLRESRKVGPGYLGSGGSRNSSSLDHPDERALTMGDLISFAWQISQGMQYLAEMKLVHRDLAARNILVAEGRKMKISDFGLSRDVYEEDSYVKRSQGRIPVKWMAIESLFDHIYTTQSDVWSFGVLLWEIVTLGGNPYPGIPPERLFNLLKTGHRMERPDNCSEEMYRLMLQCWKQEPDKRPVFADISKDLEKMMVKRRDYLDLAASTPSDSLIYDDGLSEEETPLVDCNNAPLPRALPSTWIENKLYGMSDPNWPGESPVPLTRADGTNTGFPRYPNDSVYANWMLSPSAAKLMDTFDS
UniProt P07949, 29-1114 V804M limits assumed: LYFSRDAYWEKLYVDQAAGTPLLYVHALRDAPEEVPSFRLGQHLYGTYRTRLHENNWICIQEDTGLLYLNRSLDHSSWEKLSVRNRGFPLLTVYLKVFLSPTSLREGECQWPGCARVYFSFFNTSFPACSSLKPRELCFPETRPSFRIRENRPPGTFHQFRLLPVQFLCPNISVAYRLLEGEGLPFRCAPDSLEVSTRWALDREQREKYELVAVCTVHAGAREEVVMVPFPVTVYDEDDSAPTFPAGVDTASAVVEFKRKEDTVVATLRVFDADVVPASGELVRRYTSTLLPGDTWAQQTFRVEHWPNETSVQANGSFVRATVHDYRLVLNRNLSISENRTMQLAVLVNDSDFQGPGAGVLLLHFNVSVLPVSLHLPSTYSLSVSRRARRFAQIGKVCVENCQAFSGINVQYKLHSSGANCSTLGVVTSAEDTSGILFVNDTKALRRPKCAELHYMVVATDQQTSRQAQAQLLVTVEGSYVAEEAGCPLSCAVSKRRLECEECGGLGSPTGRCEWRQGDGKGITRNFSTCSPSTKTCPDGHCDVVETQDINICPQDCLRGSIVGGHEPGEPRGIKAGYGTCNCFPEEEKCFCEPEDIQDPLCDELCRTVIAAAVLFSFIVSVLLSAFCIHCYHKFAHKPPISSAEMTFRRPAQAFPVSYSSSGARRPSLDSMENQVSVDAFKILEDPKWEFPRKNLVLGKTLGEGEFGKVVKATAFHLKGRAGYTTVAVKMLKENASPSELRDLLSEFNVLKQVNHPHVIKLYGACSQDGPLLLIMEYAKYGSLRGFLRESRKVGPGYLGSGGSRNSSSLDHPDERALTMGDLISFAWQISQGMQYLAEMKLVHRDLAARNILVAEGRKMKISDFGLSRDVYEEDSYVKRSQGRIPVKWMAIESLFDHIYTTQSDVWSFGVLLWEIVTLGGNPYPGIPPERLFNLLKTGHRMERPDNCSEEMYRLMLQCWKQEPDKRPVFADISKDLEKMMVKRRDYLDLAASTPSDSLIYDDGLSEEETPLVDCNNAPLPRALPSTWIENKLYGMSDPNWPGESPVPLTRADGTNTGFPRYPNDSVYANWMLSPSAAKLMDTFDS

In patent US12240849B2, “Nitrogen-containing spiro derivative as RET inhibitor” (GUANGZHOU BAIYUNSHAN PHARMACEUTICAL HOLDINGS CO., LTD. …, priority 2019, dated 2025):

Assays:
human wild-type RET = human wild-type RET (Homo sapiens, UniProt P07949); assay: 33P isotope-labeled kinase activity test, wild-type RET; type: biochemical; conditions: read-out: IC50 Wild-type, 33P-ATP at Km concentration
V804M mutant RET = V804M mutant RET (Homo sapiens, UniProt P07949, V804M); assay: 33P isotope-labeled kinase activity test, V804M mutant RET; type: biochemical; conditions: read-out: IC50 V804M, 33P-ATP at Km concentration

- IC50 (human wild-type RET): 70.3 nM
- IC50 (V804M mutant RET): 74.3 nM
Structure (SMILES): Cc1cc(Nc2cc(C)[nH]n2)nc(N2CCC3(CC2)OCCN(C(C)c2ccc(-n4cc(F)cn4)nc2)C3=O)n1 (centres unmarked) [Compound 018]
